The record followed here is US10214515B2, “Substituted pyrazoles as inhibitors of fibroblast growth factor receptor” (Zhejiang Hisun Pharmaceutical Co., Ltd., priority 2015, dated 2019).

Amino acid sequences for entries named in this document (tags omitted). Residues count along the entry.
UniProt P11362, 22-822: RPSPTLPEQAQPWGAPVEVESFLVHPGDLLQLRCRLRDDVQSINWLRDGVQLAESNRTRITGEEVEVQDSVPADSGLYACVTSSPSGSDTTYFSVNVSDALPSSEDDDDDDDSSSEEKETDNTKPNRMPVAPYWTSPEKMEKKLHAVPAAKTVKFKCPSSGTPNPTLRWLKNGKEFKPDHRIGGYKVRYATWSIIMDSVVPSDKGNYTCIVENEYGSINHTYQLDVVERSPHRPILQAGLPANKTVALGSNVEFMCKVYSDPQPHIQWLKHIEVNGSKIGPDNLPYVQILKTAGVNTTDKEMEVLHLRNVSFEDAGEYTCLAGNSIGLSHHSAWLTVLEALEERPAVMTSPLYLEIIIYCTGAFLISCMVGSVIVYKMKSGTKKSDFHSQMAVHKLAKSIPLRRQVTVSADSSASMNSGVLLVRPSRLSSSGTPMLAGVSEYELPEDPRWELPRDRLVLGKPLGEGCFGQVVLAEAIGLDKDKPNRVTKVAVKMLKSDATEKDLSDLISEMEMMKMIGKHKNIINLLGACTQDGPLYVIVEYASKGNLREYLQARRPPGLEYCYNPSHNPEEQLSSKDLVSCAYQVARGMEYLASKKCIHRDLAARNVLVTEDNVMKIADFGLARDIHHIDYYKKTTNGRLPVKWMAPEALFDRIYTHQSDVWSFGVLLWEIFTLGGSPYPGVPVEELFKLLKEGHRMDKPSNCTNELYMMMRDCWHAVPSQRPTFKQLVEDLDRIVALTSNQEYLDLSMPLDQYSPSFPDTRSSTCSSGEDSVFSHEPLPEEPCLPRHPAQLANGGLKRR

A value given as a limit tells only on which side of the number the result lay.

This assay concerns the target FGFR1 (Homo sapiens (Human), UniProt P11362). Particulars: read-out: IC50(nM) FGFR1; recombinant human FGFR1, ATP at Km.

In the case of `CCOC(=O)c1nc2cc(-n3ncc(C(=O)c4cc5ccccc5[nH]4)c3N)ccc2[nH]1` [Example 9, Ethyl 5-(5-Amino-4-(1H-indole-2-carbonyl)-1H-pyrazol-1-yl)-1H-benzo[d]imidazole-2-carboxylate], the IC50 is more than 10000 nM.

Usually IC50 stands for the concentration that inhibits the measured activity by half.
